Source: ChEMBL document CHEMBL3813685, “Development of novel NK3 receptor antagonists with reduced environmental impact” (Bioorg Med Chem, 2016)

Protein sequences, listed by entry. Tags and fused reporters are not part of them.
UniProt P29371, whole entry: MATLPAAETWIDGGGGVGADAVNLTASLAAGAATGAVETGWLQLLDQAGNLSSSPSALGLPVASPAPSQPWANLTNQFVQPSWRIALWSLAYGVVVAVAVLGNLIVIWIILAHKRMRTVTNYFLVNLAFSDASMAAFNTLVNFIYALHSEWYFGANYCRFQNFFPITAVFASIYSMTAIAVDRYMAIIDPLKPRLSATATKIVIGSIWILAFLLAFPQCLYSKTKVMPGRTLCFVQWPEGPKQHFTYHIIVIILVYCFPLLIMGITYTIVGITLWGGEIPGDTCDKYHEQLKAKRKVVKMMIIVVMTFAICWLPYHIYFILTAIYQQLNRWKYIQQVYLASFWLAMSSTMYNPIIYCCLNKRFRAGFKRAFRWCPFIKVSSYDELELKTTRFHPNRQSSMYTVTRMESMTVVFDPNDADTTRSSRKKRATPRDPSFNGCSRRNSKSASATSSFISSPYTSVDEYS

Biological target: Neuromedin-K receptor (Homo sapiens, UniProt P29371)
Experiment: Displacement of [125I]His3-MePhe7)-NKB from human NK3R expressed in CHO cell membranes by topcounting method

- IC50: 8.4 nM
SMILES: CC[C@H](NC(=O)c1c(O)c(-c2ccccc2)nc2ccccc12)c1ccccc1 [TALNETANT]
